Consider eight compounds from patent US20260384450A1, “MACROCYCLIC AMINOPYRIDINE COMPOUNDS AS EGFR INHIBITORS” (published 2026).

Sequences of proteins named here, by UniProt entry; tags and fusion partners are left off. A change or cut given only in a name is not applied to a line headed by its entry. A line that says so, or that is headed by a name, gives the form on record, which may keep a tag or linker. Residues count along the entry.
UniProt P00533, 25-1210 limits assumed: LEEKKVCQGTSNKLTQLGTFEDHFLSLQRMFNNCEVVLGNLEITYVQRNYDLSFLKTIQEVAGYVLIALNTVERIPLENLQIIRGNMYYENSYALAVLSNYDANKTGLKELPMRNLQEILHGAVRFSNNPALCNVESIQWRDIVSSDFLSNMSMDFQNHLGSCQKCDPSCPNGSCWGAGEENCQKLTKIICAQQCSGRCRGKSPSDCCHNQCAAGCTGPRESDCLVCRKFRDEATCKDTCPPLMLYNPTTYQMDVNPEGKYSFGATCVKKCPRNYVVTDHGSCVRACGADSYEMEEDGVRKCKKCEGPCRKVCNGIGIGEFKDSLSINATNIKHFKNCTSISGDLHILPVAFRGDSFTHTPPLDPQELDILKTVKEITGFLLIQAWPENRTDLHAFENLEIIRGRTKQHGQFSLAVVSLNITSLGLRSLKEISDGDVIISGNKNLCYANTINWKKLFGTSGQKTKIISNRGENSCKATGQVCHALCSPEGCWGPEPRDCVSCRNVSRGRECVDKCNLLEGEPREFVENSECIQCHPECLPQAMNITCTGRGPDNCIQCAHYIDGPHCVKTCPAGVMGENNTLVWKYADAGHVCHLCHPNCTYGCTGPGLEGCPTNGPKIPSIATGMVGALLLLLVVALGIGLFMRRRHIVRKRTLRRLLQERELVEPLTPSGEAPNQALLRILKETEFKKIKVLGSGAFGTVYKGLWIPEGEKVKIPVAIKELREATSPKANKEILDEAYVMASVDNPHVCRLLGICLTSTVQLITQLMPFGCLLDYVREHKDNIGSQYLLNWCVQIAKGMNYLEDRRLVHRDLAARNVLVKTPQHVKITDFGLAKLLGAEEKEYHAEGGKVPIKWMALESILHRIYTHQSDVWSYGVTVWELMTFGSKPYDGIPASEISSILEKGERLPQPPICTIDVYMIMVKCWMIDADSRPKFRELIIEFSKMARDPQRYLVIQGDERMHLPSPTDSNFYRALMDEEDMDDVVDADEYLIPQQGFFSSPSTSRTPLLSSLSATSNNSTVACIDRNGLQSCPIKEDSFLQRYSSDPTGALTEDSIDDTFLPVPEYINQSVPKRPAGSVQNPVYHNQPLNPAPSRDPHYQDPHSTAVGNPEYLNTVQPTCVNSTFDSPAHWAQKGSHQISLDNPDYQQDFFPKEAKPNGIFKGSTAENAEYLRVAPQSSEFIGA
UniProt P00533, 25-1210 C797S/L858R limits assumed: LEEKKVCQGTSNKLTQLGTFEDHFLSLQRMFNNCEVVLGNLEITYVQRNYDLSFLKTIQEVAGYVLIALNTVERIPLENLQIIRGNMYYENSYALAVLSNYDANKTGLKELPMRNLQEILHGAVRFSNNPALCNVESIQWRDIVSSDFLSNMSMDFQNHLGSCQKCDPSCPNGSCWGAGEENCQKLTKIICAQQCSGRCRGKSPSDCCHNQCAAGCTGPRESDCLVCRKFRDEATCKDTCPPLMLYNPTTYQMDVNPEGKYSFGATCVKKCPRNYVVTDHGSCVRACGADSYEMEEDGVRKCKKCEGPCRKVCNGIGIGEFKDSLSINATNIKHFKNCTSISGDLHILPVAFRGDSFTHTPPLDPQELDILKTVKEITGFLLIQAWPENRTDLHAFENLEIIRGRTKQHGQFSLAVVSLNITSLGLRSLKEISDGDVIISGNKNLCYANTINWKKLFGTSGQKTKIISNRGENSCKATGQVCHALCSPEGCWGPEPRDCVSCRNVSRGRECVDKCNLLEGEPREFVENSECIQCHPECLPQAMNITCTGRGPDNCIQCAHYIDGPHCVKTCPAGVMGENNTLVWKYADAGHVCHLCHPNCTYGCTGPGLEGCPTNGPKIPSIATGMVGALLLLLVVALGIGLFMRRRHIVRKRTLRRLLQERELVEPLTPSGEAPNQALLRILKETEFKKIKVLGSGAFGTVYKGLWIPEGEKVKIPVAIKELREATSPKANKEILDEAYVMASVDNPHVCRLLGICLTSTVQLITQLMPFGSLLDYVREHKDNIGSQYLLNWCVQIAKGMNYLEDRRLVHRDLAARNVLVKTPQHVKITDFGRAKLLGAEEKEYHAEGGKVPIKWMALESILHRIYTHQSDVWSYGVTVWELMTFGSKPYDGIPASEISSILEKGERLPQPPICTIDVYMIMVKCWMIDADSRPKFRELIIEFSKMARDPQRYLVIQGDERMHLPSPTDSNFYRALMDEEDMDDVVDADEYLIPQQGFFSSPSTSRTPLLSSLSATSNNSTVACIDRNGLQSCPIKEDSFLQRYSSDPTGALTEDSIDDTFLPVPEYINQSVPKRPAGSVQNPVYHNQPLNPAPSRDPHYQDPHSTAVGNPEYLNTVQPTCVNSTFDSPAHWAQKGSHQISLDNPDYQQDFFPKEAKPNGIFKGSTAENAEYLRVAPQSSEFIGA
UniProt P00533, 25-1210 T790M/C797S/L858R limits assumed: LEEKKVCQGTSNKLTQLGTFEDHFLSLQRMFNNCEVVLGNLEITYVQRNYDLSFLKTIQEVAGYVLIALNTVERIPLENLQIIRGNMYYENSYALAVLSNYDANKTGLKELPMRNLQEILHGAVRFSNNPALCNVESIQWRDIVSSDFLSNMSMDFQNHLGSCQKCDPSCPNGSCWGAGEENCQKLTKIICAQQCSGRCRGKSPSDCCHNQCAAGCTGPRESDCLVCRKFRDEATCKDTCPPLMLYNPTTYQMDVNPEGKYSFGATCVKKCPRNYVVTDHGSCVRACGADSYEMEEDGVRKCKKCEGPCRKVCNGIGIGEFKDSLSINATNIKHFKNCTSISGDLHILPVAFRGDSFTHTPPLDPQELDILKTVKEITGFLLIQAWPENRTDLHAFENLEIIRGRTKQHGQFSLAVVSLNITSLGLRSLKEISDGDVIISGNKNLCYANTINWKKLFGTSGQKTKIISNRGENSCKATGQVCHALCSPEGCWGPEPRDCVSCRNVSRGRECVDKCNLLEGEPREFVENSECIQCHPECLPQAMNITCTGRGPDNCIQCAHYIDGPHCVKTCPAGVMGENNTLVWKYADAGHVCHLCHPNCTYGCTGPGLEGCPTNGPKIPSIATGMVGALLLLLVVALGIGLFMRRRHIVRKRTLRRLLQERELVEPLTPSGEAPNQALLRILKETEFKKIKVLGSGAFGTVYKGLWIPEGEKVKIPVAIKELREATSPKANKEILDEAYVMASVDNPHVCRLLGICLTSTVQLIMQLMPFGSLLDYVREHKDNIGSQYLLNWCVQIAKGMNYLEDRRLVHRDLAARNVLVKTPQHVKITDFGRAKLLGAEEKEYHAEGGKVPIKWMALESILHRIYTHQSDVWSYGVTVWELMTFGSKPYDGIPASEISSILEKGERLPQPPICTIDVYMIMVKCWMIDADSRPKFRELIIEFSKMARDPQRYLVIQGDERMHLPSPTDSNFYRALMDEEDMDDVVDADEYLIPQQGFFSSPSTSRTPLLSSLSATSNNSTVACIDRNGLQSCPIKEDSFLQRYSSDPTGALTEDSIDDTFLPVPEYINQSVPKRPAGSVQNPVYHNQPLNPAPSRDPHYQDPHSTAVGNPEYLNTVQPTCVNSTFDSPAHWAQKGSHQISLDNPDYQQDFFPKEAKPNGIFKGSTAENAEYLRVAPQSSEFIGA
UniProt P00533, with tags, fused parts or gaps DEL746-750/C797S limits assumed: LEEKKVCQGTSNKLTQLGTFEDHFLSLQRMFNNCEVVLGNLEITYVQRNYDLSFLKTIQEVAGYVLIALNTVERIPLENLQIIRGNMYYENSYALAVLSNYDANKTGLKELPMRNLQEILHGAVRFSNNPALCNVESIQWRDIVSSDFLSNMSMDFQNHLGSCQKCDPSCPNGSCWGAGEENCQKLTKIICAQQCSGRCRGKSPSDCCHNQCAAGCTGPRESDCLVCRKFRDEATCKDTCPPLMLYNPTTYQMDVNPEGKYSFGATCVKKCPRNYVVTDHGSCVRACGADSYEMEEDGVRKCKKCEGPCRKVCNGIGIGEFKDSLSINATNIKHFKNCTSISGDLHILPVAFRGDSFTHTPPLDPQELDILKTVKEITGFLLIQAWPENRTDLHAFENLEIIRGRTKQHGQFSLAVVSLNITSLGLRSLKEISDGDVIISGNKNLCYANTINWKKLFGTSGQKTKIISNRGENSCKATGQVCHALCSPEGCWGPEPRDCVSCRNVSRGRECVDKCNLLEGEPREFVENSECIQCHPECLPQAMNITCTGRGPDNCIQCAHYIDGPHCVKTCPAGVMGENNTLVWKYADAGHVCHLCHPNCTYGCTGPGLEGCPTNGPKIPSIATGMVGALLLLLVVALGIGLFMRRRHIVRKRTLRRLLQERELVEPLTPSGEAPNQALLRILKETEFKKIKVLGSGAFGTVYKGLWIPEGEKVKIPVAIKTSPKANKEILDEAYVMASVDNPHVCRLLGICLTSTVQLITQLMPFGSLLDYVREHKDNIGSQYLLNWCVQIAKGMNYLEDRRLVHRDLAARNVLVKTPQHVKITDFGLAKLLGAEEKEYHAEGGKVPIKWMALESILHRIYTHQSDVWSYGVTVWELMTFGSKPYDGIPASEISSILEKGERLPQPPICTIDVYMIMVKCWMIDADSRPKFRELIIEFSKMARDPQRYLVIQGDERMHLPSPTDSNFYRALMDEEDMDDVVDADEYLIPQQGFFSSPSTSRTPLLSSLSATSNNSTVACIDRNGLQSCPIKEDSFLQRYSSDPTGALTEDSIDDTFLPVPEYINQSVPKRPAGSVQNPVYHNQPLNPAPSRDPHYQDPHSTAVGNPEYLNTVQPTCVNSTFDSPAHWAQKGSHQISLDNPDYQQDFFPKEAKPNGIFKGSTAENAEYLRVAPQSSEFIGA
UniProt P00533, with tags, fused parts or gaps DEL746-750/T790M/C797S limits assumed: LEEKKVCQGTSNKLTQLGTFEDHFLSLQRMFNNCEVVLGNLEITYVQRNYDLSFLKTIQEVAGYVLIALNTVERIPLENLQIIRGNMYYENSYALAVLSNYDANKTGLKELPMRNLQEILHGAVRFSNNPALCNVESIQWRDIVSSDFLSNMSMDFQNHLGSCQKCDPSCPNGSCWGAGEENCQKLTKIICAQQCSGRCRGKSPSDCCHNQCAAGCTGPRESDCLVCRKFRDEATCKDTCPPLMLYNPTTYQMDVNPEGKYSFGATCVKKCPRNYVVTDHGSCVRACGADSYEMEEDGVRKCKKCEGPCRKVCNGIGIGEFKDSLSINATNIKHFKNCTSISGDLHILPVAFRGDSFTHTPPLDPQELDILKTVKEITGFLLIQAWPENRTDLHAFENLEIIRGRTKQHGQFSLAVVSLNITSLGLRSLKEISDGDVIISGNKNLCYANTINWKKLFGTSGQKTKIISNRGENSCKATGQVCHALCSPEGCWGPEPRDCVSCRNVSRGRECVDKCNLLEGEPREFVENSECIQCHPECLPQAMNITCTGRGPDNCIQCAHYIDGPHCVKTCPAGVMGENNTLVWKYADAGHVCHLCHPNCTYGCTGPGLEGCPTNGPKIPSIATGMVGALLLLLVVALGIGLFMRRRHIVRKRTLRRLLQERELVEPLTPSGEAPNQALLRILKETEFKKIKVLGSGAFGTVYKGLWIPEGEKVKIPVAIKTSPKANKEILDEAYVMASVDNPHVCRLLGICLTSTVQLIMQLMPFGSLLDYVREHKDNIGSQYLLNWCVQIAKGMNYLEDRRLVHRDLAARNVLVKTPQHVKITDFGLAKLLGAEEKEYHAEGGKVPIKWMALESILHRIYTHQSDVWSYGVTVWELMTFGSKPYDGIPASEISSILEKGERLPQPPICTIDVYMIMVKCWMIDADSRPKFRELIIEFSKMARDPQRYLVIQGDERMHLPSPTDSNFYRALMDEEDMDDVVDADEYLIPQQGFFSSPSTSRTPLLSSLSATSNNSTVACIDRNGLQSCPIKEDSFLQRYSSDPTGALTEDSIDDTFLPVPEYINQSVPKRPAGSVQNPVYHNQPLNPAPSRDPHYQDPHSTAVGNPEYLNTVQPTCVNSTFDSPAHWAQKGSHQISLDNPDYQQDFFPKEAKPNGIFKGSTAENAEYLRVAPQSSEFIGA

Read-outs that look alike come from different tables or passages of the source.

Test [1] addresses EGFR D19TMCS (del19/T790M/C797S) (Homo sapiens, UniProt P00533, C797S/DEL746-750/T790M). The experiment in a line: Biochemical EGFR kinase assay (Lance Ultra TR-FRET), triple mutant del19/T790M/C797S. In general terms: TR-FRET usually uses a lanthanide donor and a delayed reading to cut background.
The target in test [2] is EGFR LRTMCS (L858R/T790M/C797S) (Homo sapiens, UniProt P00533, C797S/L858R/T790M). The experiment in a line: Biochemical EGFR kinase assay (Lance Ultra TR-FRET), triple mutant L858R/T790M/C797S.
In test [3] the target is EGFR D19CS (del19/C797S) (Homo sapiens, UniProt P00533, C797S/DEL746-750). In words: Biochemical EGFR kinase assay (Lance Ultra TR-FRET), double mutant del19/C797S.
Test [4] concerns the target EGFR LRCS (L858R/C797S) (Homo sapiens, UniProt P00533, C797S/L858R). In words: Biochemical EGFR kinase assay (Lance Ultra TR-FRET), double mutant L858R/C797S.
The target of test [5] is EGFR WT (Homo sapiens, UniProt P00533). The experiment in a line: Biochemical EGFR kinase assay (Lance Ultra TR-FRET), wildtype.
[6] abbreviates: read-out: EGFR D19TMCS IC50, ATP 1 mM.
The mark [7] stands for this setting: read-out: EGFR D19TMCS IC50, ATP Km.
[8] abbreviates: read-out: EGFR LRTMCS IC50, ATP 1 mM.
The mark [9] stands for this setting: read-out: EGFR LRTMCS IC50, ATP Km.
Setting [10] is: read-out: EGFR D19CS IC50, ATP 1 mM.
The mark [11] stands for this setting: read-out: EGFR D19CS IC50, ATP Km.
The mark [12] stands for this setting: read-out: EGFR LRCS IC50, ATP 1 mM.
The mark [13] stands for this setting: read-out: EGFR LRCS IC50, ATP Km.
Setting [14] is: read-out: EGFR WT IC50, ATP 1 mM.

By IC50 is commonly meant the concentration needed to halve the response being measured. As to `Cn1nc(-c2cnc3cc2NC[C@H](F)COc2c(cnn2C)-c2nccc(n2)N3)cc1C(F)(F)F`, the IC50 in test [1] (setting [6]) was under 10 nM; in test [1] (setting [7]), under 10 nM; in test [2] (setting [8]), under 10 nM; in test [2] (setting [9]), under 10 nM; in test [3] (setting [10]) it was 100 to 1000 nM; in test [3] (setting [11]) it was 10 to 100 nM. In addition, the half-maximal inhibitory concentration (IC50) in test [4] (setting [12]) is 100 to 1000 nM; in test [4] (setting [13]), 10 to 100 nM; in test [5] (setting [14]) it was over 1000 nM; in test [5] (read-out: EGFR WT IC50, ATP Km) it was 100 to 1000 nM.

Turning to `C[C@H]1CCOc2c(cnn2C)-c2nccc(n2)Nc2cc(c(-c3ncc(CN4CCN(C)CC4)cc3F)cn2)N1`, the IC50 in test [1] (setting [6]), in test [1] (setting [7]), in test [2] (setting [8]), in test [2] (setting [9]), in test [3] (setting [10]) and in test [3] (setting [11]) was under 10 nM throughout. Besides, the IC50 in test [4] (setting [12]) was under 10 nM; in test [4] (setting [13]), under 10 nM; in test [5] (setting [14]) it was over 1000 nM; in test [5] (read-out: EGFR WT IC50, ATP Km) it was under 10 nM.

As for `C[C@H]1CCOc2c(cnn2C)-c2nccc(n2)Nc2cc(c(-c3ccc(C(C)(O)C(F)(F)F)cn3)cn2)N1` (stereo partly shown), the IC50 was under 10 nM in test [1] (setting [6]); under 10 nM in test [1] (setting [7]); under 10 nM in test [2] (setting [8]); under 10 nM in test [2] (setting [9]); 10 to 100 nM in test [3] (setting [10]); under 10 nM in test [3] (setting [11]). Besides, the half-maximal inhibitory concentration (IC50) in test [4] (setting [12]) was 100 to 1000 nM; in test [4] (setting [13]), under 10 nM; in test [5] (setting [14]), over 1000 nM; in test [5] (read-out: EGFR WT IC50, ATP Km), 10 to 100 nM.

Regarding `C[C@H]1CCOc2c(cnn2C)-c2nccc(n2)Nc2cc(c(-c3ncccc3OC(F)F)cn2)N1`, the IC50 in test [1] (setting [6]) was 10 to 100 nM; in test [1] (setting [7]) it was 10 to 100 nM; in test [2] (setting [8]) it was 10 to 100 nM; in test [2] (setting [9]), under 10 nM; in test [3] (setting [10]), over 1000 nM; in test [3] (setting [11]), 100 to 1000 nM. In addition, the IC50 in test [4] (setting [12]) was over 1000 nM; in test [4] (setting [13]) it was 100 to 1000 nM; in test [5] (setting [14]), over 1000 nM; in test [5] (read-out: EGFR WT IC50, ATP Km), 100 to 1000 nM.

Turning to `C[C@@H]1CCNc2cc(ncc2-c2ccn(C(F)F)n2)Nc2ccnc(n2)-c2cnn(C)c2OC1`, the half-inhibitory concentration (IC50) in test [1] (setting [6]) is 10 to 100 nM; in test [1] (setting [7]) it was under 10 nM; in test [2] (setting [8]), 10 to 100 nM; in test [2] (setting [9]), under 10 nM; in test [3] (setting [10]) it was over 1000 nM; in test [3] (setting [11]) it was over 1000 nM. For the same compound, the IC50 is over 1000 nM in test [4] (setting [12]); 100 to 1000 nM in test [4] (setting [13]); over 1000 nM in test [5] (setting [14]); over 1000 nM in test [5] (read-out: EGFR WT IC50, ATP Km).

For the compound `Cc1nn(C)c2c1-c1nccc(n1)Nc1cc(c(-c3ccc(C(F)(F)F)cn3)cn1)N[C@@H](C)CCO2`, the IC50 in test [1] (setting [6]) is under 10 nM; in test [1] (setting [7]), under 10 nM; in test [2] (setting [8]), 10 to 100 nM; in test [2] (setting [9]) it was under 10 nM; in test [3] (setting [10]), 100 to 1000 nM; in test [3] (setting [11]) it was 10 to 100 nM. Further, the 50% inhibitory concentration (IC50) is over 1000 nM in test [4] (setting [12]); 100 to 1000 nM in test [4] (setting [13]); over 1000 nM in test [5] (setting [14]); over 1000 nM in test [5] (read-out: EGFR WT IC50, ATP Km).

Turning to `Cc1nn(C)c2c1-c1nccc(n1)Nc1cc(c(-c3ncc(S(C)(=O)=O)cn3)cn1)NCC[C@H](C)O2`, the IC50 in test [1] (read-out: IC50, EGFR D19TMCS, Km, ATP at Km, EGFR del19/T790M/C797S) is under 10 nM; in test [2] (read-out: IC50, EGFR LRTMCS, 1 mM, ATP 1 mM, EGFR L858R/T790M/C797S), under 10 nM; in test [2] (read-out: IC50, EGFR LRTMCS, Km, ATP at Km, EGFR L858R/T790M/C797S), under 10 nM; in test [3] (read-out: IC50, EGFR-D19CS, 1 mM, ATP 1 mM, EGFR del19/C797S), under 10 nM; in test [3] (read-out: IC50, EGFR-D19CS, Km, ATP at Km, EGFR del19/C797S), under 10 nM; in test [4] (read-out: IC50, EGFR-LRCS, 1 mM, ATP 1 mM, EGFR L858R/C797S), 10 to 100 nM. Also, the IC50 in test [4] (read-out: IC50, EGFR-LRCS, Km, ATP at Km, EGFR L858R/C797S) is under 10 nM; in test [5] (read-out: IC50, EGFR WT, 1 mM, ATP 1 mM, EGFR wildtype), over 1000 nM; in test [5] (read-out: IC50, EGFR WT, Km, ATP at Km, EGFR wildtype) it was under 10 nM.

In the case of `CO[C@H]1C[C@H](Nc2ccnc(-c3cnc4cc3N[C@@H](C)CCOc3c(cnn3C)-c3nccc(n3)N4)c2)C1`, the concentration for half-maximal inhibition (IC50) in test [1] (setting [6]) is under 10 nM; in test [1] (setting [7]) it was under 10 nM; in test [2] (setting [8]), under 10 nM; in test [2] (setting [9]) it was under 10 nM; in test [3] (setting [10]), 10 to 100 nM; in test [3] (setting [11]) it was 10 to 100 nM. Besides, the 50% inhibitory concentration (IC50) in test [4] (setting [12]) is 100 to 1000 nM; in test [4] (setting [13]) it was 10 to 100 nM; in test [5] (setting [14]), over 1000 nM; in test [5] (read-out: EGFR WT IC50, ATP Km), 10 to 100 nM.
